Patent EP4707263A1, “FLUORINATING AGENT AND FLUORINATION METHOD” (Daikin Industries, Ltd., priority 2024, dated 2025)

Experiment: pKa (acid dissociation constant) determined by neutralization titration
Type: physicochemical
Conditions: acid dissociation constant at 25°C in water

| pKa | Substance |
| --- | --- |
| 17 | tBuOK [Base B-1] |
| 17 | tBuONa [Base B-4] |
